# Assay results from PubChem BioAssay AID485294 (National Center for Advancing Translational Sciences (NCATS), 2010).
# By UniProt entry, the sequences of proteins in these tests, tags left out.
# UniProt P00811, whole entry: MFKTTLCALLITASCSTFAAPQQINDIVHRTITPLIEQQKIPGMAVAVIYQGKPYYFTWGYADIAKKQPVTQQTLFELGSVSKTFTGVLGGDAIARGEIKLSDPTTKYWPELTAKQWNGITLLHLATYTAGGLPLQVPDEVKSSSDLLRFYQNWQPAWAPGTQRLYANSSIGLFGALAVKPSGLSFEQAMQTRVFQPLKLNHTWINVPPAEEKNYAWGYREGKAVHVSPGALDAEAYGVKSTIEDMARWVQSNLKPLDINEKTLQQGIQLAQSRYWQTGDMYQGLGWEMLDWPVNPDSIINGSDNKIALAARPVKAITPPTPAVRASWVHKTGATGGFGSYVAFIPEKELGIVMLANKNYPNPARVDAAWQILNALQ
# “And” between values parts separate entries of the source, which are not always exact repeats. Identical values can stand only once. The list shows a part of the results, in another mix than the full data. Some tests of the compounds listed are not included; inactive here does not mean inactive elsewhere. Records with an inconclusive call do not appear. The source made the active and inactive calls. The call rests on the fitted dose curve; in most records, active means well fitted inhibition curve with a large enough effect; inconclusive means small, poorly fitted or top-dose-only effect; inactive means flat fitted curve, though single readings scatter.
# Molecular target: Beta-lactamase (Escherichia coli (strain K12)) (UniProt P00811)
# Experiment: qHTS Inhibitors of AmpC Beta-Lactamase (assay with detergent);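 further: 0% = no-compound wells and -100% = no-enzyme wells; nearly all actives have a fitted effect of over 25% in size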
# Details: AmpC hydrolysis of nitrocefin, absorbance 480 nm, 0.01% Triton; at 114 µM (top of the series)
row,SMILES,"activity change, negative = inhibition"
1,CN(C)C1(CNC(=O)c2ccc(Br)cc2)CCCCC1,inactive: -2.6%
2,COc1cc(C(=O)NCC2(N(C)C)CCCCC2)c([N+](=O)[O-])cc1OC,inactive: -1.72%
3,COc1ccc(C(=O)NCC2(N(C)C)CCCCC2)cc1Cl,inactive: -5.87%
4,COc1cccc(C(=O)NCC2(N3CCCCC3)CCCCC2)c1,inactive: -6.63%
5,COc1ccc(Cl)cc1C(=O)NCC1(N(C)C)CCCCC1,inactive: -1.43%
6,O=C(NCC1(N2CCCCC2)CCCCC1)c1cccc(Cl)c1,inactive: 2.5%
7,COc1cccc(C(=O)NCC2(N3CCOCC3)CCCCC2)c1,inactive: 19%
8,CC(C)COc1ccc(C(=O)NCC2(N(C)C)CCCCC2)cc1,inactive: 21.1%
9,Cc1cccc(C(=O)NCC2(N(C)C)CCCCC2)c1,inactive: 2.69%
10,COc1cc(C(=O)NCC2(N(C)C)CCCCC2)cc(OC)c1OC,inactive: 18.1%
11,COc1ccc(Br)c(C(=O)NCC2(N3CCCCC3)CCCCC2)c1,inactive: 1.14%
12,CC(C)Oc1ccc(C(=O)NCC2(N(C)C)CCCCC2)cc1,inactive: 20.6% and inactive: -5.37%
13,O=C(NCC1(N2CCCCC2)CCCCC1)c1cc([N+](=O)[O-])ccc1Cl,inactive: -3.33%
14,CN1[C@@H]2CC[C@H]1CC(OC(=O)C(O)(c1ccccc1)c1ccccc1)C2 (some centres not stated),inactive: 1.33%
15,CC(C)N1C(=O)CC2(CCN(CCOC(=O)C(O)(c3ccccc3)c3ccccc3)CC2)C1=O,inactive: -11.1%
16,CCN(CC)CC(C)C(C)OC(=O)C(O)(c1ccccc1)c1ccccc1 (configuration not stated),inactive: -7.96%

row,SMILES,"activity change, negative = inhibition"
1,CN(C)C1(CNC(=O)c2cccc(Cl)c2)CCCCC1,inactive: 22.8%
2,COc1cc(SC)ccc1C(=O)NCC1(N(C)C)CCCCC1,inactive: 2.35%
3,CN(C)C1(CNC(=O)c2ccccc2F)CCCCC1,inactive: 21%
4,Cc1ccc(C(=O)NCC2(N3CCCCC3)CCCCC2)cc1,inactive: -5.49%
5,CN(C)C1(CNC(=O)c2ccccc2[N+](=O)[O-])CCCCC1,inactive: 17.6%
6,Cc1ccccc1C(=O)NCC1(N2CCCCC2)CCCCC1,inactive: -12.2%
7,CN(C)C1CCCC1OC(=O)C(O)(c1ccccc1)c1ccccc1 (configuration not stated),inactive: 6.82%
8,CN(C)c1ccc(C(=O)NCC2(N(C)C)CCCCC2)cc1,inactive: -4.52%
9,CCCCOc1ccccc1C(=O)NCC1(N(C)C)CCCCC1,inactive: -5.59%
10,C=CCN1CCN(CCOC(=O)C(O)(c2ccccc2)c2ccccc2)CC1,inactive: 8.63%
11,O=C(NCC1(N2CCCCC2)CCCCC1)c1cc(F)c(F)cc1Cl,inactive: -2.34%
12,Cc1cc(C(=O)NCC2(N3CCCCC3)CCCCC2)ccc1[N+](=O)[O-],inactive: 2.29%
13,CCN1CCCC(OC(=O)C2(O)c3ccccc3C=Cc3ccccc32)C1 (configuration not stated),inactive: -11.7%
14,O=C(NCC1(N2CCCCC2)CCCCC1)c1cccc(Br)c1,inactive: 0.232%
15,COc1ccc(C(=O)NCC2(N(C)C)CCCCC2)cc1,inactive: -10.2%
16,CCOc1cccc(C(=O)NCC2(N(C)C)CCCCC2)c1,inactive: 19%
